The record followed here is PubChem BioAssay AID1645870 (National Center for Advancing Translational Sciences (NCATS), 2021).

The chains behind the UniProt entries cited, without tags or fusion partners.
UniProt Q9BV86, whole entry: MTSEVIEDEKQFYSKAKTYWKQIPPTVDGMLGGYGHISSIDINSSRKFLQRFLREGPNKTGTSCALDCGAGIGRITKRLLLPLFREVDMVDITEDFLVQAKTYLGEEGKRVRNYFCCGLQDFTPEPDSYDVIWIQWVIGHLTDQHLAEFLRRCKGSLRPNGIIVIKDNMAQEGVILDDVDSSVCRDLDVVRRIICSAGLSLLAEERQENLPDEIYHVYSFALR

Molecules are shown by their SMILES. This is a selection; strong and weak results do not stand in their true shares. Records with an inconclusive call do not appear. Activity calls are given as the source filed them. The call rests on the fitted dose curve; in most records, active means well fitted inhibition curve with a large enough effect; inconclusive means small, poorly fitted or top-dose-only effect; inactive means flat fitted curve, though single readings scatter.

This assay deals with N-terminal Xaa-Pro-Lys N-methyltransferase 1 (Homo sapiens) (UniProt Q9BV86). Nature of the assay: Primary qHTS for Inhibitors of N-terminal methyltransferase 1 (NTMT1): MTaseGlo Assay.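 Further: plate controls were DMSO vehicle for no effect and no enzyme for full effect; nearly all actives have a fitted effect of over 65% in size.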 As to conditions: NTMT1 MTase-Glo SAH luminescence, purified enzyme; at 57.5 µM (top of the series). The source says: Assay Submitter (PI): Rong Huang Ph.D.
Purdue University, West Lafayette, IN 47907
The N-terminal methytransferase 1 is the first methyltransferase that methylates protein alpha-N-amines and plays an important role in regulating cell mitosis, chromatin interactions and DNA repair. It is observed to be over-expressed in various cancer patient tissues like malignant melanoma and colorectal cancer tissues. Knockdown of NTMT1 in cancer cells causes cell mitotic defects and enhances sensitivity to DNA damaging chemotherapeutics. […] These critical cellular processes in which NTMT1 is implicated, coupled with emerging links to cellular dysfunction, strengthen the inference that NTMT1 is a compelling novel anticancer target. […] To address this unmet need, a panel of assay is created and established to enable quantitative high-throughput screening (qHTS) for novel, potent, and selective small molecule NTMT1 inhibitors. […]
MTaseGlo Assay is a luminescence screen that measure the activity of methyltransferases based on the reaction product S-adenosyl homocysteine (SAH). […]
8; Reagent; 5 uL; Dispense 5 uL of 1x MTase-Glo Detection Solution (R) to allow for ADP to be converted to ATP which was then detected with a luciferase reaction. […]
11; Detection; Luminescence; Plates were read on ViewLux detector (PerkinElmer). […]
On the technique in general: In qHTS, concentration-response curves come from the screen itself.
Turning to `CN(CCCl)CCCl`, the activity change, negative = inhibition is inactive: 14.9%.
